Results as given in patent US5948749A, “Pharmaceutical preparations for intranasal administration” (Fuji Yakuhin Company, Limited, priority 1996, dated 1999).

System: ophthalmic mucous membrane
Settings: rabbit, in vivo
Procedure: The testing method of the present test was based on the guidelines given by OECD. That means, 3 rabbits were used in this study, and a test drug was administered once into one eye of a rabbit in the conjunctival sac, and the other eye was used as control. […] Eyes were washed using lukewarm water of about 35° C. at the observation 24 hours after the administration. Scores of the conjunctival reaction obtained by administration of each test drug were calculated according to the assessment criteria of Draize method. The maximum of total score at each observation time was obtained for each test drug and for each test animal, and the average was calculated, then irritation evaluation in 8 stages (FIG. 9) was carried out according to the Kay and Calandra ophthalmic mucous membrane irritation classification method.

In the case of “styrene-divinylbenzene copolymer [styrene-divinylbenzene copolymer resin]”, the “Kay and Calandra ophthalmic mucous membrane irritation classification (8 levels)” value was “Minimally irritating” and the “average value (score) of the maximum Draize score” value was 2.7.
